This is an account of results in ChEMBL document CHEMBL1156827, “Benzimidazole derivatives as new serotonin 5-HT6 receptor antagonists. Molecular mechanisms of receptor inactivation” (J Med Chem, 2010).

Chains of the proteins cited; added tags and fusions are not shown.
UniProt Q9R1C8, whole entry: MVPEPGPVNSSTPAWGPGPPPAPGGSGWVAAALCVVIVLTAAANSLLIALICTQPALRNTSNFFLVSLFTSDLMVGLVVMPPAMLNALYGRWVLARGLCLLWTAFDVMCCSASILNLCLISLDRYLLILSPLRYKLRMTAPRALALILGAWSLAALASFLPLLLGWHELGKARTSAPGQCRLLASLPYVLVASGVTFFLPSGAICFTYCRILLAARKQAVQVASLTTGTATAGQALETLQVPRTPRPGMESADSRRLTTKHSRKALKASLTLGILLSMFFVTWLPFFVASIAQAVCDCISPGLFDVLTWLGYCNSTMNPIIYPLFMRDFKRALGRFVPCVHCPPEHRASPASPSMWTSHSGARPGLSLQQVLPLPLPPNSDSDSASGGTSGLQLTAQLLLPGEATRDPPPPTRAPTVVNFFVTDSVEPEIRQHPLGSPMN
UniProt Q9R1C8, whole entry C110A: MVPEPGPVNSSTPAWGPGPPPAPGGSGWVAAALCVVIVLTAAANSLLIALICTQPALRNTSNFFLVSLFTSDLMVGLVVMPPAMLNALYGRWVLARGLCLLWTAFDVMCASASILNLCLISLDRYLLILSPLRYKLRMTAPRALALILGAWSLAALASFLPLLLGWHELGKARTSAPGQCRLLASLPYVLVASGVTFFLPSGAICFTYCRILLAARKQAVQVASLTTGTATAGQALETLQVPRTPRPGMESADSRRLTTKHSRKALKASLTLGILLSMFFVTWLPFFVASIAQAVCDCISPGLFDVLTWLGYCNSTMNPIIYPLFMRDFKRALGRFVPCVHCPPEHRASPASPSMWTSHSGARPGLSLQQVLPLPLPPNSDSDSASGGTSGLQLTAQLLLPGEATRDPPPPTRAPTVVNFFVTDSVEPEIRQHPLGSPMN
UniProt P50406, whole entry: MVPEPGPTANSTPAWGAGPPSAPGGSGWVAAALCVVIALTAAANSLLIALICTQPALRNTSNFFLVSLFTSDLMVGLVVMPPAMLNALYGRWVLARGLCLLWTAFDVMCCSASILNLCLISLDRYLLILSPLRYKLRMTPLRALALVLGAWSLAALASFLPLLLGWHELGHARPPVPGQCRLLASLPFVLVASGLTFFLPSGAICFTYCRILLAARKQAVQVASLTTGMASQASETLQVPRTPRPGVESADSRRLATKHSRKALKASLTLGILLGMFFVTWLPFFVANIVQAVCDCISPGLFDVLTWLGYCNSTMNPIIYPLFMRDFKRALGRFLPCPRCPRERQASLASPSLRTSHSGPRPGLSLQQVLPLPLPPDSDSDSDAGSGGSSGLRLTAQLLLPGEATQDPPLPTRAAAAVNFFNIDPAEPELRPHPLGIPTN

A word on the Ki: it is a measure of affinity in units of concentration, obtained from inhibition or displacement.

What all share (type): functional, cell-based, COS-7
The target in assay [1] is 5-hydroxytryptamine receptor 6 (Mus musculus, UniProt Q9R1C8). Kind of assay: Antagonist activity at mouse wild type 5HT6 receptor expressed in COS7 cells assessed as inhibition of serotonin-induced cAMP accumulation by HTRF assay. In outline:
(§1)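 COS-7 cells were transfected with wild-type or mutant receptor cDNA and seeded at 100000 cells/well. At 24 h post-transfection, cells were stimulated for 10 min at 37 °C with eight concentrations of test ligand plus 100 μM 5-HT. cAMP was read by HTRF. […] Three independent experiments in triplicate, mean ± SEM.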

For assay [2], the target named is 5-hydroxytryptamine receptor 6 (Homo sapiens, UniProt P50406). Kind of assay: Antagonist activity at human 5HT6 receptor expressed in COS7 cells assessed as inhibition of serotonin-induced cAMP accumulation by HTRF assay. The method, boiled down: as §1
In general terms: cAMP levels reflect the balance of adenylyl cyclase and phosphodiesterase activity.

The target of assay [3] is 5-hydroxytryptamine receptor 6 (Mus musculus, UniProt Q9R1C8, C110A). As to the kind of experiment: Antagonist activity at mouse 5HT6 receptor C3.36A mutant expressed in COS7 cells assessed as inhibition of serotonin-induced cAMP accumulation by HTRF assay. The method, boiled down:
as §1

Regarding `CN1CCN(c2cccc3[nH]c(C(=O)c4cccc5ccccc45)nc23)CC1`, the Ki is 5 nM in assay [1], 5 nM in assay [2] and 34 nM in assay [3].
